Measured values from PubChem BioAssay AID2071 (Sanford-Burnham Center for Chemical Genomics, 2009).
Only a part is listed here, and it is no random draw. Active and inactive are the calls of the source. Cut-off read from the data, not from the text of the source: active = inhibition mostly above about 24% (no sharp cut-off); inactive = mostly below about 32%.

assay: NALP1 inflammasome inhibitors in reconstituted yeast, colorimetric, S. cerevisiae, triplicate retest (AID 2071); conditions: S. cerevisiae NALP1/ASC/caspase-1 growth, X-gal OD620, 72 h; at 10 µM; active compounds read high

| Compound | inhibition |
| --- | --- |
| O=C(O)COc1ccc([As](=O)(O)O)cc1[N+](=O)[O-] | inactive: 17.5% |
| ClCCSc1nnc(-c2cccnc2)o1 | inactive: -46% |
| CC(C)c1ccc(OP(=O)(Nc2ccccn2)Oc2ccccc2F)cc1 (centres undefined) | inactive: -14.9% |
| O=[N+]([O-])c1cc([N+](=O)[O-])c(-c2ccn[nH]2)s1 | inactive: 46.2% |
| CC(C)NC(=O)NP(=O)(Oc1ccccc1)Oc1ccccc1 | inactive: 6.3% |
| CCN(CC)C(=S)SC(NC=O)C(Cl)(Cl)Cl (centres undefined) | inactive: 8.7% |
| O=[As](O)(c1ccc(O)cc1)c1ccccc1O | inactive: -3.2% |
| C[As](=O)(O)c1cccc(C(=O)O)c1 | inactive: 12.9% |
| Cc1ccc(OP(=O)(Nc2ccc([N+](=O)[O-])cn2)Oc2ccc(C)cc2)cc1 | inactive: 23.5% |
| Cc1ccc2nc3c(c(C)c2c1)CC(C(Cl)Cl)S3 (centres undefined) | inactive: 22.2% |
| COc1ccc(N/C(=N/P(=O)(N2CCOCC2)N2CCOCC2)N2CCOCC2)cc1 | inactive: 16.9% |
| Cc1c2c(nc3ccccc13)SC(C(Cl)Cl)C2 (centres undefined) | inactive: 26.2% |
| Cc1cc(=O)[nH]c(N[N+](=O)[O-])n1 | inactive: 14.2% |
| O=C(OC1CN2CCC1CC2)C12CC3CC(CC(C3)C1)C2 (centres undefined) | inactive: 47.5% |
| COc1cc(I)ccc1[As](=O)(O)O | inactive: -7% |
| COc1ccc2nc(NP(=O)(c3ccccc3)c3ccccc3)sc2c1 | inactive: -3.6% |
| O=C(OC1CN2CCC1CC2)c1cccc([N+](=O)[O-])c1 (centres undefined) | inactive: 11.9% |
| CCOC(=O)c1ccc(NC(=O)C(C)(CCl)SC)cc1 (centres undefined) | inactive: -8.7% |
| CCC(C)N(CC(C)C)C(=S)SC(NC(C)=O)C(Cl)(Cl)Cl (centres undefined) | inactive: 26.1% |
| COP1(=S)c2c(C)nn(CCC#N)c2N=C(c2ccc(F)cc2)N1C (centres undefined) | active: 34.4% |
| O=C(Nc1ccncc1[N+](=O)[O-])c1ccc([N+](=O)[O-])cc1[N+](=O)[O-] | inactive: 8.2% |
| O=C(COc1ccccc1)OC1CN2CCC1CC2 (centres undefined) | inactive: 26% |
| CCOC(=O)Nc1cccc([As](=O)(O)O)c1 | inactive: 9.9% |
| O=P(Nc1ccccn1)(c1cccc2ccccc12)c1cccc2ccccc12 | inactive: 5% |
| Cc1cc(SC(NC=O)C(Cl)(Cl)Cl)ncn1 (centres undefined) | inactive: -22.9% |
| O=[N+]([O-])c1ccc(Nc2ccc(Oc3ccc([N+](=O)[O-])cc3[N+](=O)[O-])cc2)c([N+](=O)[O-])c1 | inactive: 7.7% |
| CCOC(=O)Nc1ccc([As](=O)(O)O)c(O)c1 | inactive: 6.2% |
| Cc1cc(SC(NC(=O)c2ccccc2)C(Cl)(Cl)Cl)nc(C(C)C)n1 (centres undefined) | inactive: 19% |
| CCCCOc1ccc(C(=O)NCC2(N3CCCCC3)CCCCC2)cc1OC | inactive: 2% |
